Assays:
Aurora B = Aurora B (Homo sapiens, UniProt Q96GD4); experiment: Aurora-B microfluidic kinase assay; details: read-out: Aurora-B IC50; biochemical; mean of two determinations or mean ±SD for n > 2
Aurora A = Aurora A (Homo sapiens, UniProt O14965); experiment: Aurora-A microfluidic kinase assay; details: read-out: Aurora-A IC50; biochemical; mean of two determinations or mean ±SD for n > 2
[1] = Human liver microsomal stability; assay type: in vitro ADME; details: percentage of compound metabolised after a 30 min incubation, human liver microsomes
[2] = Mouse liver microsomal stability; assay type: in vitro ADME; details: percentage of compound metabolised after a 30 min incubation, mouse liver microsomes
[3] = tested on: HCT116 human colon carcinoma cells; experiment: HCT116 cell growth inhibition; details: read-out: GI50 HCT116, 72 h incubation

By UniProt entry, the sequences of proteins in these tests, tags left out.
UniProt Q96GD4, whole entry: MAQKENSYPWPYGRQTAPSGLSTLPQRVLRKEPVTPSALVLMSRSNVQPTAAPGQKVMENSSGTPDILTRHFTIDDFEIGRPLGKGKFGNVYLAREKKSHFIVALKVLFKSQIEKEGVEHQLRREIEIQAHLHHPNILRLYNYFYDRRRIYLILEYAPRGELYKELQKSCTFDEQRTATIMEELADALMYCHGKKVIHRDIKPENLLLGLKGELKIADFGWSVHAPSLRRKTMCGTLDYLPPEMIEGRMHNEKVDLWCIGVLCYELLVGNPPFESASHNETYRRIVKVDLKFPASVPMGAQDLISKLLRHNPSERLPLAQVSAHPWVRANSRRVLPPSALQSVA
UniProt O14965, whole entry: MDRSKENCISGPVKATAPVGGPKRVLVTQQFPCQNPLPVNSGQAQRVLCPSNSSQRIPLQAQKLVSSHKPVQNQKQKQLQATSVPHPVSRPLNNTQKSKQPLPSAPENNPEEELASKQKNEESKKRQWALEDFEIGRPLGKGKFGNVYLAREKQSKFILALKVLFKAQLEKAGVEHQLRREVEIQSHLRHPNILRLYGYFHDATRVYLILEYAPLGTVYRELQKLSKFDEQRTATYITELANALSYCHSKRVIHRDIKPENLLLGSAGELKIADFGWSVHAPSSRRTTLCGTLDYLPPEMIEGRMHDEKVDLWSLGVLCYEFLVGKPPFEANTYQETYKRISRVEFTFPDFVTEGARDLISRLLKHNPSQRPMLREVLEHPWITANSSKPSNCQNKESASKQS

SMILES	IC50 (Aurora B) [nM]	IC50 (Aurora A) [nM]	HLM % met/30 min [1] [%]	MLM % met/30 min [2] [%]	GI50 [3] [nM]
Cc1nn(C)cc1-c1nc2c(-c3cnn(Cc4ccc(F)c(F)c4)c3)c(Cl)cnc2[nH]1	458	322	28	31	130
Cc1nn(C)cc1-c1nc2c(-c3cnn(Cc4cccc(CN(C)C)c4)c3)c(Cl)cnc2[nH]1	17	14	95	97	–
Cc1nn(C)cc1-c1nc2c(-c3cnn(Cc4cccc(CN5CCCC5)c4)c3)c(Cl)cnc2[nH]1	31	17	92	100	–
Cc1nn(C)cc1-c1nc2c(-c3cnn(Cc4ccc(F)cc4)c3)c(Cl)cnc2[nH]1	347	182	39	52	200
